From patent US12397059B2, “Compounds and methods for the treatment and prevention of fibrotic disease states and cancer” (Purdue Research Foundation, priority 2019, dated 2025)

Legend:
[1] = system: BM-induced experimental pulmonary fibrosis in mice; details: mouse, in vivo
Protocol: Studies were also performed to determine if macrophages in pulmonary fibrotic lungs might be specifically targeted with folate-linked drugs in vivo. […] (The BM model is widely regarded to be helpful in terms of enabling mechanistic investigations relevant to fibrogenesis in an in vivo context.)
More specifically, eight-week-old C57BL6 male mice from Charles River (average weight 22 g to 25 g) were housed under pathogen-free conditions at room temperature (22° C.) under a 12 hours light-dark cycle. Mice were placed on a folate deficient chow (Envigo Teklad Global Rat Food Pellets) for 1 week prior to the BM or PBS instillation. Fresh water and folate-deficient diet were freely available. […]
Thereafter, the mice were anesthetized with ketamine/xylazine and the necks of the mice were shaved using hair remover lotion and then sterilized with 70% alcohol. […] Body weights were monitored every other day throughout the experiment. […]
For the subsequent HYP analysis, 10 μl of sample was transferred into a 96-well plate and neutralized with 10 μl of 5.3 M sodium hydroxide solution. […] The absorbance was measured at 560 nm (A560) within 15 min. […]
Two doses were given every other day till day 21. […] Mice were then sacrificed on day 21 and subjected immediately to bronchoalveolar lavage followed by resection of the lungs for immunohistochemistry and quantitation of collagen and hydroxyproline.

healthy mice = details: mouse, in vivo

CCCCc1nc2c(N)nc3ccccc3c2n1CC(C)(C)O [Compound 1A, 1-(4-Amino-2-butyl-1H-imidazo[4,5-c]quinolin-1-yl)-2-methylpropan-2-ol]
weight loss [1]: > 25%
systemic cytokine release (plasma IL-6, IFNα, TNFα) (healthy mice): stimulates systemic cytokine release
